Measured values taken from patent publication US20180256673A1, “METHODS FOR TREATING FUNGAL INFECTIONS” (priority 2015, published 2018).

Key:
[1] = Phase 1 dose-escalation trials, safety and tolerability; details: single and multiple doses up to 400 mg once weekly for up to 3 weeks
[2] = test system: C. parapsilosis CP02; assay: Broth microdilution MIC (CLSI), Examples 3 and 4; details: Lodderomyces parapsilosis, CP02, 24 h, read-out: Broth MIC
[3] = test system: C. parapsilosis CP02; assay: microbe, parasite or virus in culture; assay type: cell-based, Candida parapsilosis; details: Lodderomyces parapsilosis, CP02, CP02 P20-1, selecting drug CAS

SMILES: CCCCCOc1ccc(-c2ccc(-c3ccc(C(=O)N[C@H]4C[C@@H](O)[C@@H](OCC[N+](C)(C)C)NC(=O)[C@@H]5[C@@H](O)[C@@H](C)CN5C(=O)[C@H]([C@@H](C)O)NC(=O)[C@H]([C@H](O)[C@@H](O)c5ccc(O)cc5)NC(=O)[C@@H]5C[C@@H](O)CN5C(=O)[C@H]([C@@H](C)O)NC4=O)cc3)cc2)cc1 [Compound 1]
- safety and tolerability [1]: safe and well tolerated
- MIC [2]: 2 µg/mL
- MIC [3]: 2 µg/mL
